## AlphaSeq binding of Ab-14 heavy chain variants to a spike HR2 peptide

Reference: Li et al. 2023, doi:10.1038/s41467-023-39022-2. File: FLAb, binding data.

Target peptide (SARS-CoV-2 spike, HR2 region): PDVDLGDISGINAS

The variants keep the light chain, the linker and the frameworks of Ab-14 (scFv order VH, a 15-residue (Gly4Ser)3 linker, VL).
VH: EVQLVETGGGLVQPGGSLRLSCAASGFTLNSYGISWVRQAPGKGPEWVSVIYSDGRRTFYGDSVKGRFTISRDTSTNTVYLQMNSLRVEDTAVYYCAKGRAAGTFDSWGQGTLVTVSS
VL: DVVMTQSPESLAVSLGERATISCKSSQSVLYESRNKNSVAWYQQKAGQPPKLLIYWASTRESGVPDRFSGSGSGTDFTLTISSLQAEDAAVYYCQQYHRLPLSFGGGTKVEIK

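The starting antibody came from a phage panning campaign against this peptide. Designed CDR sequences, proposed from the first random library and measured here. Several design methods are mixed in this list. The assay is AlphaSeq: two haploid yeast populations carry antibody and antigen on their surface. Mating (16 h, 30 °C) was followed by selection of diploids and sequencing of their barcodes. Read counts were normalised to the haploid input and turned into Kd by a linear fit to BCL2-family pairs of known affinity, for each replicate. Mating was done six times.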

Variants are written as CDR1, CDR2 and CDR3 of the heavy chain (limits as in the source). Parent: GFTLNSYGIS, VIYSDGRRTFYGDSVK, GRAAGTFDS. Variants here have more than six changes. Numbers give log10(Kd / nM), so 0 is 1 nM and 3 is 1 µM. Smaller is tighter. Averages over replicates are reported, and they cover detected replicates only. Where no diploid with the target was found in that replicate, the entry reads "n.d.": below detection, most likely a poor binder, though not proof of it. The authors' rule: three or more of the six replicates give a measured affinity, fewer mean a poor binder. Values of this round are not directly comparable with the first-round values of the same sequences. Empty control strains, which show no peptide, gave a signal in 1% of pairings with all heavy chain designs; the median was 2.08 and 95% of these signals were weaker than 0.84. No background was subtracted. For each scFv, signals with the empty controls are counted beside the result, with their mean in brackets.

CDR-H1	CDR-H2	CDR-H3	log10 Kd, replicates	mean, log10 nM	empty controls
GFDLNEYGIS	VIYADGQRTFYADSVK	GKNAGTFDQ	0.05 0.16 -0.30 -0.34 -0.05 0.06	-0.07	0 of 18
GNTLDEYGIS	VIYADGMRKAYKNKFK	GMVTGTFDQ	n.d. n.d. n.d. n.d. n.d. n.d.	n.d.	0 of 18
GFDLNEYGIS	VIYADGKRTFYADSVK	GNQAGTFDL	-0.50 -0.92 -0.69 -0.90 -0.88 -0.15	-0.67	1 of 18 (0.57)
GFVLDEYGIS	VIYADGHRRAYADKVK	GMHMGSFQH	n.d. 2.90 n.d. n.d. n.d. n.d.	2.90	1 of 18 (2.81)
GKSLDEYGIS	VIYADGMRHEYTDSVK	GQFDDGMDL	n.d. n.d. n.d. n.d. n.d. n.d.	n.d.	1 of 18 (1.81)
GFDLNEYGIS	VIYADGMRTHYADSVK	GNEAGTFDS	-0.18 -0.44 -0.37 -0.58 -0.28 -0.14	-0.33	1 of 18 (1.64)
GFDLNEYGIS	VIYADGRRTAYADSVK	GGNAGTFDI	-0.10 0.02 -0.13 -0.11 -0.23 0.22	-0.06	0 of 18
GFNLEEYGIS	VIYADGFRASYQDDVK	GQNGSVNLR	n.d. n.d. n.d. n.d. n.d. n.d.	n.d.	0 of 18
GFDLEEYGIS	VIYADGMRTAYSDSVK	GNVAGTFDL	-0.15 -0.79 -0.74 -0.64 -0.66 -0.26	-0.54	1 of 18 (1.37)
GFDLNEYGIS	VIYADGRRTAYSDSVK	GANAGTFDQ	-0.50 -0.05 -0.52 -0.36 0.03 -0.25	-0.27	2 of 18 (1.64)
GFDLNEYGIS	VIYADGMRKAYADDVK	GNVAGTFDV	n.d. n.d. n.d. n.d. n.d. n.d.	n.d.	0 of 18
GFDLNEYGIS	VIYADGKRTAYADSVK	GGNAGTFDQ	0.17 -0.39 0.19 -0.45 -0.67 -0.35	-0.25	0 of 18
GFDLNEYGIS	VIYADGRRTAYSDSVK	GEAAGFFDT	n.d. n.d. 2.63 n.d. n.d. n.d.	2.63	0 of 18
GFDIMEYGVS	VIYADGVRTAYSQDVK	GLNLDSYVD	n.d. n.d. n.d. n.d. n.d. n.d.	n.d.	0 of 18
GFDLDEYGIS	VIYADGRRTAYADSVK	GNQAGTFDI	-0.69 n.d. -1.02 -1.45 -0.36 -0.99	-0.90	0 of 18
GFDLNEYGIS	VIYADGLRTFYTDSVK	GESAGTFDV	-0.31 -0.79 -0.87 -0.84 -1.29 -0.68	-0.79	0 of 18
GFDLNEYGIS	VIYADGVRTAYADSVK	GNNAGTFDV	-0.24 -0.56 -0.62 -0.60 -0.62 -0.21	-0.48	0 of 18
GFDLDEYGIS	VIYADGRRTAYSDSVK	GETAGTFDL	-0.35 -0.24 -0.30 -0.64 -0.50 -0.32	-0.39	0 of 18
GFDIEDYGIS	VIYADGKRSSYSNSFK	GLMSGNIMV	n.d. n.d. n.d. n.d. n.d. n.d.	n.d.	0 of 18
GFNLDEYGIS	VIYADGRRTFYADSVK	GELAGTFDT	-0.98 -0.84 -1.35 -1.21 -0.66 -0.87	-0.98	0 of 18
GKDIDEYGIS	VIYADGIRTFYIDRVK	GNLGGQFDM	n.d. n.d. n.d. n.d. n.d. n.d.	n.d.	0 of 18
GFNLNEYGIS	VIYADGHRSAYVSNVK	GHLGGTFSM	2.02 n.d. 1.41 1.45 2.12 1.51	1.70	0 of 18
GFNLGEYGIS	VIYADGRRTFYINSVK	GEFIVMNVD	n.d. n.d. n.d. n.d. n.d. n.d.	n.d.	0 of 18
GFDLNEYGIS	VIYADGKRTAYADDVK	GSNAGTFDI	n.d. n.d. n.d. n.d. n.d. n.d.	n.d.	0 of 18
GFDLEEMGIS	VIYADGARTVYTNSVK	GSFGDQMNV	n.d. n.d. n.d. n.d. n.d. n.d.	n.d.	0 of 18
GFNLDEYGIS	VIYADGRRTFYSDSVK	GSTAGTFDV	-0.63 -0.95 -0.82 -0.76 -0.78 -0.57	-0.75	0 of 18
GFDLNEYGIS	VIYADGRRTAYIDSVK	GEIAGTFDQ	-0.65 -0.54 -0.84 -0.90 -0.69 -0.76	-0.73	1 of 18 (1.42)
GFDLNEYGIS	VIYADGRRTFYADSVK	GNTAGTFDM	-0.53 -0.38 -0.58 -0.53 -0.51 -0.24	-0.46	1 of 18 (1.04)
GQSLEEYGIS	VIYADGFRTQYKDSVK	GKNVFDITV	n.d. n.d. n.d. n.d. n.d. n.d.	n.d.	0 of 18
GFDLDEYGIS	VIYADGVRTSYADSVK	GEVAGTFDV	-0.09 -0.52 -0.52 -0.43 -0.79 0.01	-0.39	0 of 18
GFDLEEYGVS	VIYADGQRAFYTDSVK	GKGAGIALI	n.d. n.d. n.d. n.d. n.d. n.d.	n.d.	0 of 18
GFNLNEYGIS	VIYADGMRTFYSNSVK	GEAAGTFDV	-0.43 -0.53 -0.27 -0.63 -0.46 -0.39	-0.45	1 of 18 (3.71)

The first 4 entries again:

CDR-H1	CDR-H2	CDR-H3	log10 Kd, replicates	mean, log10 nM	empty controls
GFDLNEYGIS	VIYADGQRTFYADSVK	GKNAGTFDQ	0.05 0.16 -0.30 -0.34 -0.05 0.06	-0.07	0 of 18
GNTLDEYGIS	VIYADGMRKAYKNKFK	GMVTGTFDQ	n.d. n.d. n.d. n.d. n.d. n.d.	n.d.	0 of 18
GFDLNEYGIS	VIYADGKRTFYADSVK	GNQAGTFDL	-0.50 -0.92 -0.69 -0.90 -0.88 -0.15	-0.67	1 of 18 (0.57)
GFVLDEYGIS	VIYADGHRRAYADKVK	GMHMGSFQH	n.d. 2.90 n.d. n.d. n.d. n.d.	2.90	1 of 18 (2.81)